Measurements: ChEMBL document CHEMBL4152383 (J Med Chem, 2018)

Experiment: Selectivity index, ratio of IC50 for human His-thioredoxin-tagged HDAC8 to IC50 for Schistosoma mansoni His-tagged HDAC8

Ratio IC50: 4
SMILES: O=C(NO)c1cn(-c2cc(Cl)ccc2Oc2ccc(F)cc2)nn1
